Test results published in BindingDB's records for US9403767.
pKi: −log10 of the molar value.

Sequences of proteins named here, by UniProt entry; tags and fusion partners are left off. A change or cut given only in a name is not applied to a line headed by its entry.
UniProt P41146: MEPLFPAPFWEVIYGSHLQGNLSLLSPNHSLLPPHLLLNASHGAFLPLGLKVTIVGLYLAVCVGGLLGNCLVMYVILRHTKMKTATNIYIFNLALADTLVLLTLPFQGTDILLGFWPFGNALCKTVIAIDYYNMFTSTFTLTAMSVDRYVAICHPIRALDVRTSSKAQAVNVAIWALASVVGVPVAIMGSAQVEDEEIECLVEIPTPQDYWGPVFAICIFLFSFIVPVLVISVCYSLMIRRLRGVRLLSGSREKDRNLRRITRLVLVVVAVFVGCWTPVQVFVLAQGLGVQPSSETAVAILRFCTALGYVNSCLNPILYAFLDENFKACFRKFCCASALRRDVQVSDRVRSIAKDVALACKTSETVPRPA
UniProt P35372, whole entry, looked up: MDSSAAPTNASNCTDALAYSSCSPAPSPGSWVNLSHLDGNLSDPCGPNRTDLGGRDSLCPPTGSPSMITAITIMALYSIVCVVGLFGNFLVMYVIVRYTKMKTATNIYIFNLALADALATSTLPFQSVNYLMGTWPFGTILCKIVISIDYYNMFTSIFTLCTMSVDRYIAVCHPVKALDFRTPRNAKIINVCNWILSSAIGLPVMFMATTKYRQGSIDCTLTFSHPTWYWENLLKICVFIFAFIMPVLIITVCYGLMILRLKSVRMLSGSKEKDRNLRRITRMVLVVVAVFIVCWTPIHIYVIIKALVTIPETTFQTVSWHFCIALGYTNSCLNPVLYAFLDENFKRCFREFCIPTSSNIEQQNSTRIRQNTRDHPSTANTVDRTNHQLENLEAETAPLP
UniProt P41145: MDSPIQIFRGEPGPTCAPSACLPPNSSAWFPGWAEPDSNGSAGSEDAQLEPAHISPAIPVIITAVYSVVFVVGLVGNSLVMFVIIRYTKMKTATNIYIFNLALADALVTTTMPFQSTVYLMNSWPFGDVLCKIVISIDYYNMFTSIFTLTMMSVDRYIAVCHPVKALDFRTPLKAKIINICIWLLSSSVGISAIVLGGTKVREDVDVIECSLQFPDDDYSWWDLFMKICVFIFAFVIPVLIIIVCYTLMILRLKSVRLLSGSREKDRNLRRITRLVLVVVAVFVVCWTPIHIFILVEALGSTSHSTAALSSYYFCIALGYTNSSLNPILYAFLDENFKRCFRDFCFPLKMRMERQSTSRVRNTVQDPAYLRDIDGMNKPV

Key:
Assay in all cases: Binding Assay
Nociceptin receptor = Nociceptin receptor (Homo sapiens, UniProt P41146); conditions: pH 7.4
Mu-type opioid receptor = Mu-type opioid receptor (Homo sapiens, UniProt P35372)
[1] = target: Kappa-type opioid receptor (Homo sapiens, UniProt P41145)

Row | SMILES | pKi (Nociceptin receptor) | pKi (Mu-type opioid receptor) | pKi [1]
1 | CC(NC(=O)/C=C/c1ccccc1)C1CCC(c2cccc(F)c2)(N(C)C)CC1 (stereo unspecified) | 6.12 | 6.88 | 
2 | CNC(=O)CN(C)C1(c2ccccc2)CCC(c2ccccc2)(N(C)C)CC1 (stereo unspecified) | 8.13 |  | 
3 | CN(C)C1(c2ccccc2)CCC(c2ccccc2)(N(C)C(=O)C(c2ccccc2)c2ccccc2)CC1 (stereo unspecified) | 8.00 |  | 
4 | CN(C)C1(Cc2ccccc2)CCC(c2ccccc2)(N(C)C)CC1 (stereo unspecified) |  |  | 5.43
5 | CNC1(c2[nH]c3ccccc3c2C)CCC(c2cccc(F)c2)(N(C)C)CC1 (stereo unspecified) | 6.21 |  | 
